In paper PMC9922763:

Molecular target: synthetic IAPP, used as monomer and as sonicated preformed fibrils (seeds) (UniProt P10997)

lag phase of ThT fibril formation of 2.5 µM monomeric IAPP after adding aSyn seeds corresponding to 500 nM monomeric peptide (240 min without seeds); PBS pH 7.4, 37°C: 80 min
Substance: recombinant alpha-synuclein (aSyn), used as monomer and as sonicated preformed fibrils (seeds) (from UniProt P37840 1-140) (natural protein)
